Source: patent publication US20130289023A1, “METHOD FOR TREATING BRAIN TUMOR” (priority 2012, published 2013)

Assays:
[1] = tested on: GBM8401 cells; assay: MTT cell viability assay in GBM8401; conditions: 10 μM, 72 hr
Procedure: To examine the cytotoxicity of anti-psychotic drugs on malignant glioma, GBM8401 cells were treated with 21 anti-psychotic drugs at 10 μM, respectively, for 72 hr.

[2] = tested on: U87MG sphere cells (cancer stem-like cells); conditions: 10 and 20 μM, 24 hr

Substance: fluphenazine
- cytotoxicity compared with the other anti-psychotic drugs [1]: more effective in cytotoxicity
- cell viability [2]: significantly reduced
